The list is not random: actives were taken first. Their share in the collection is about 2.8%.
miR122 inh: miR-122 inhibition in Huh7 cells | actives 0.3% (n = 340,000) | activation (reporter increase), % at 12.5 µM | Huh7 miR-122 Renilla luciferase sensor, 48 h; neutral wells = 0, positive control = 100;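 active = mean replicate activation score at least 90 and every replicate individually at or above 90; inconclusive = only one of the two criteria met; inactive = neither criterion met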;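 note: higher luciferase means less miR-122 activity so hits act as miR-122 inhibitors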
PglD DTNB: blocks C. jejuni PglD acetyltransferase activity; purified PglD enzyme, DTNB colorimetric CoA detection; inhibition, % at 12.5 µM; actives 0.098% (n = 360,000); AID 602405; in the data active = inhibition above about 16%, passing the limit was not always enough; inconclusive = no clear call, values can overlap the other calls
esBAF inh: blocks esBAF chromatin remodeling in mouse ES cells; Bmi1-luciferase knock-in reporter, 24 h; 100% = twice the neutral-well signal; reporter increase, % at 12.5 µM; actives 2% (n = 350,000); in the data active = activation above about 40%; inconclusive = no clear call, values can overlap the other calls;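 note: 0% = median of the plate's neutral control wells and 100% = double that signal; a rise in the Bmi1 reporter signal indicates esBAF inhibition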
Wnt bcat act: activators of Wnt/beta-catenin signaling; Wnt/beta-catenin reporter cell assay, activator, plate reader; AID 743398; actives 1.2% (n = 300,000); activation, % at 9.35 µM; in the data active = activation above about 30%, passing the limit was not always enough; inconclusive = no clear call, values can overlap the other calls;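 note: 0% = neutral control wells and 100% = positive control wells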
Yeast UUG start: alters start codon recognition fidelity in yeast | S. cerevisiae UUG-firefly luciferase reporter, luminescence/redox ratio | activity score, % at 18.7 µM | hit rate 0.13% among 350,000 | AID 602363;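 active means replicate mean at a twofold rise or more, about +100% in these data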;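 further: firefly luciferase made from a UUG start codon reports start codon fidelity; reporter light over untreated wells divided by growth signal over untreated wells; some hits fall short of that in this replicate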
MITF act: MITF TRPM1 promoter activation in melanoma cells; AID 588334; activation, % at 12.5 µM; SK-MEL-5 TRPM1-promoter luciferase, 24 h; % of positive control, neutral wells = 0; actives 0.75% (n = 300,000);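 active = mean activation of at least 80% with every replicate also reaching 80%; inconclusive = mean reaches 80% but some replicate falls short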;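 note: 0% = neutral control wells and 100% = parthenolide positive control wells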
An asterisk follows results filed as active; ? = inconclusive; nt = no result given; [ ] = another dose, or the depositor's remark.

entry	canonical_smiles	miR122 inh	PglD DTNB	esBAF inh
1	COc1ccc(NC(=O)CSc2ccccn2)c([N+](=O)[O-])c1	-1	-1	?
2	O=C(CCSc1ccccn1)Nc1ccc(Br)cc1	nt	nt	nt
3	CCC(=O)OCC(=O)Nc1ccc(OC)cc1[N+](=O)[O-]	3	nt	-8
4	COc1ccc(NC(=O)CSc2nc(C)cc(C)n2)c([N+](=O)[O-])c1	nt	nt	nt
5	COc1ccc(NC(=O)COC(=O)CN2C(=O)C3CC=CCC3C2=O)c([N+](=O)[O-])c1 (stereo unspecified)	1	1	-3
6	O=C(CSc1ccccn1)Nc1ccc(NC(=O)CSc2ccccn2)cc1	nt	nt	nt
7	CC(C)NC(=O)N(C)C[C@H]1OCCCC[C@H](C)Oc2ccc(NC(=O)Nc3ccc(F)cc3)cc2C(=O)N([C@H](C)CO)C[C@@H]1C	3[16.7 µM]	2	-7
8	COc1ccc(CN(C)C[C@H]2Oc3ccc(NC(=O)Nc4c(C)noc4C)cc3C(=O)N([C@H](C)CO)C[C@H]2C)cc1	-4[16.7 µM]	2	1
9	C[C@@H]1CCCCO[C@@H](CN(C)C(=O)c2ccccc2)[C@H](C)CN([C@@H](C)CO)C(=O)c2cc(NC(=O)Nc3ccccc3)ccc2O1	-11[16.7 µM]	0	-2
10	Cn1c(-n2c(-c3ccco3)nc3ccccc3c2=O)nc2ccccc21	6	0	49*
11	CC(C)NC(=O)N(C)C[C@@H]1Oc2ccc(NC(=O)Nc3ccccc3)cc2C(=O)N([C@@H](C)CO)C[C@H]1C	-2[16.7 µM]	-1	2
12	Cc1ccc2nc(C)c(C)nc2c1N	113*	5	7

entry	Wnt bcat act	Yeast UUG start	MITF act
1	39*	-29	nt
2	62*	nt	58
3	0	nt	2
4	nt	nt	13
5	40*	-10	-8
6	nt	nt	-8
7	nt	4	nt
8	nt	22	nt
9	nt	-5	nt
10	8	-15	19
11	nt	-24	nt
12	nt	-18	9

Following part
entry	canonical_smiles	miR122 inh	PglD DTNB	esBAF inh
13	COc1ccc(NC(=O)N(C)C[C@@H]2Oc3ccc(NS(=O)(=O)c4ccc(Cl)cc4)cc3C(=O)N([C@@H](C)CO)C[C@H]2C)cc1	-1[16.7 µM]	3	8
14	CCCNC(=O)C[C@@H]1C[C@@H]2c3cc(NC(=O)Nc4ccc(OC)cc4)ccc3O[C@@H]2[C@@H](CO)O1	-3[16.7 µM]	0	2
15	Cc1ccc(NC(=O)/C(C#N)=C/c2ccc(C)s2)c(C)c1	2	-5	42*
16	CN(C)c1ccc(NC(=O)c2ccc(COc3cccc(Cl)c3)o2)cc1	5	-16	74*
17	O=C(/C=C/c1ccccc1Cl)Nc1ccncc1	-2	0	nt
18	O=C(/C=C/c1c(Cl)cccc1Cl)Nc1ccncc1	-19	0	44*
19	O=C(/C=C/c1c(F)cccc1Cl)Nc1ccncc1	-22	0	62*
20	CCCNC(=O)C[C@@H]1CC[C@H]2[C@@H](COc3ccc(NC(=O)C4CCOCC4)cc3C(=O)N2C)O1	-2[16.7 µM]	7	-2
21	CCCN1C[C@@H](C)[C@H](OC)CN(C)C(=O)c2ccc(NC(=O)c3ccc(F)cc3)cc2OC[C@@H]1C	-1[16.7 µM]	5	0
22	c1ccc(-n2nnnc2-c2cccc3ccccc23)cc1	116*	nt	-14
23	c1ccc(-n2nnnc2NCCc2c[nH]c3ccccc23)cc1	-32	-4	11
24	Cc1ccc(-n2nnnc2-c2ccccc2Br)cc1	4	0	-4

entry	Wnt bcat act	Yeast UUG start	MITF act
13	nt	-4	nt
14	nt	-7	nt
15	nt	-14	42
16	nt	-11	13
17	nt	-10	56
18	10	-10	88*
19	nt	1	36
20	nt	-12	nt
21	nt	nt	nt
22	-3	nt	-8
23	-5	-19	nt
24	-1	-10	nt

Additional structures
entry	canonical_smiles	miR122 inh	PglD DTNB	esBAF inh
25	c1ccc(CNc2nnnn2-c2ccccc2)cc1	128*	3	9
26	CO[C@H]1CN(C)C(=O)c2cc(NS(C)(=O)=O)ccc2OC[C@H](C)N(C(=O)C2CC2)C[C@H]1C	nt	2	-1
27	CCOC(=O)c1ccccc1NC1c2ccccc2C(=O)N1c1cc(C)ccn1 (stereo unspecified)	-8	-1	-6
28	COc1cc(OC)c(NC2c3ccccc3C(=O)N2c2cc(C)ccn2)cc1Cl (stereo unspecified)	1	2	7
29	O=C(C[C@H]1C=C[C@H](NC(=O)CN2CCOCC2)[C@@H](CO)O1)NC1CCC1	nt	9	2
30	COc1ccc2cc(C#N)c(SCC(=O)Nc3nonc3C)nc2c1	-3	nt	40
31	O=C(CSc1nc(-c2ccccc2)ns1)N1CCOCC1	nt	nt	nt
32	CCOC(=O)CSc1nc2cc(OC)ccc2cc1C#N	9	8	33
33	Cc1cccc(-c2nsc(SCC(=O)N3CCCC3)n2)c1	-8	-8	nt
34	CCOC(=O)CSc1nc2cc(C)ccc2cc1C#N	30	-2	44*
35	Cc1ccc2cc(C#N)c(SCC(=O)N3CCCC3)nc2c1	-4	12	9
36	CO[C@@H]1CN(C)C(=O)c2cc(NC(=O)C3CCC3)ccc2OC[C@H](C)N(Cc2ccc(F)cc2)C[C@@H]1C	0[16.7 µM]	1	7

entry	Wnt bcat act	Yeast UUG start	MITF act
25	-4	-16	7
26	nt	26	nt
27	-4	2	nt
28	39*	11	nt
29	nt	-3	nt
30	23	nt	20
31	12	nt	51
32	67*	-9	111*
33	29	-28	89*
34	49*	-1	40
35	33*	-31	67
36	nt	1	nt

In a second layout: entries from further up
28) COc1cc(OC)c(NC2c3ccccc3C(=O)N2c2cc(C)ccn2)cc1Cl (stereo unspecified)
  miR122 inh = 1; PglD DTNB = 2; esBAF inh = 7; Wnt bcat act = 39*; Yeast UUG start = 11; MITF act = nt
6) O=C(CSc1ccccn1)Nc1ccc(NC(=O)CSc2ccccn2)cc1
  miR122 inh = nt; PglD DTNB = nt; esBAF inh = nt; Wnt bcat act = nt; Yeast UUG start = nt; MITF act = -8

The listing continues.
entry	canonical_smiles	miR122 inh	PglD DTNB	esBAF inh
37	O=C(C[C@H]1CC[C@H]2[C@@H](COC[C@@H](O)CN2Cc2ccccc2)O1)N1CCOCC1	-4[16.7 µM]	2	3
38	Cc1noc(C)c1NC(=O)N(C)C[C@@H]1Oc2c(NC(=O)C3CCCCC3)cccc2C(=O)N([C@@H](C)CO)C[C@@H]1C	-4[16.7 µM]	-2	5
39	CCOC(=O)CSc1nc2ccc(C)cc2cc1C#N	-3	0	71*
40	CCOC(=O)CSc1nc2cc(C)cc(C)c2cc1C#N	5	-1	24
41	CC(=O)Nc1ccc(NC(=O)c2c(C)nn(Cc3ccccc3)c2Cl)cc1	nt	-1	5
42	Cc1nn(Cc2ccccc2Cl)c(Cl)c1C(=O)NCCc1ccccc1	-6	nt	5
43	COC(=O)C[C@H]1C=C[C@@H](NS(=O)(=O)c2ccc(OC)cc2)[C@@H](CO)O1	nt	0	-3
44	CCC(C)C(=O)N1CCCC(c2nc(-c3cccs3)no2)C1 (stereo unspecified)	10	2	53*
45	Cc1ccc(-c2csc(NC(=O)CN3C(=O)CCC3=O)n2)cc1	nt	nt	nt
46	O=C(CN1C(=O)CCC1=O)Nc1nc(-c2ccc3ccccc3c2)cs1	nt	nt	nt
47	O=C(CN1C(=O)CCC1=O)Nc1nc(-c2nc3ccccc3s2)cs1	-4	2	40
48	O=C(CN1C(=O)CCC1=O)Nc1nc(-c2ccccn2)cs1	3	-4	-3

entry	Wnt bcat act	Yeast UUG start	MITF act
37	nt	nt	nt
38	nt	-19	nt
39	-1	-22	134*
40	nt	-13	43
41	-1	5	-1
42	47*	nt	60
43	nt	-14	nt
44	?	-4	?
45	2	nt	9
46	44*	nt	67
47	10	-3	92*
48	-1	-15	0

High-throughput results from PubChem.
